In PMC8345219 (Cancers, 2021):
Entries after “also recorded” stand apart in the source; their conditions may differ. Blank lines part the entries; values can stand above or below the molecule they belong to.

Tests used:
human blood plasma = conditions: 37 °C, up to 24 h
[1] = system: HEK293 cells stably transfected with CMKLR1-eYFP; test: Resazurin-based cell viability assay, HEK293-CMKLR1; conditions: HEK293-CMKLR1, 72 h; read-out: IC50 (toxicity)
Experimental: HEK293 cells stably transfected with CMKLR1-eYFP, empty HEK293 cells (15,000 cells in 100 µL suspension/well), or HMEC-1 cells (5000 cells in 100 µL suspension/well) in their respective cell culture media were seeded in 96 well plates (coated with poly D-lysine for HEK cells) and incubated at standard conditions overnight. Afterward, cells were incubated with peptides or MTX dissolved in cell culture media, and a medium without peptides was used as a control. […] Ethanol or media was removed and a 50 µL resazurin-based in vitro toxicology assay kit (Sigma-Aldrich, St. Lous, MO, USA) in cell culture media (1:10) was added to each well. After 1 h incubation time, the conversion of the resazurin was detected by measuring the fluorescence intensity at λem = 590 nm. All experiments were performed in duplicates and each experiment was repeated at least three times. Nonlinear regression was calculated using GraphPad Prism 5, curves were normalized to untreated and ethanol-treated cells.

HMEC-1 cells = test: Resazurin-based cell viability assay, HMEC-1; conditions: HMEC-1 cells endogenously expressing CMKLR1, 72 h; read-out: IC50 (toxicity)
Experimental: (§1) HEK293 cells stably transfected with CMKLR1-eYFP, empty HEK293 cells (15,000 cells in 100 µL suspension/well), or HMEC-1 cells (5000 cells in 100 µL suspension/well) in their respective cell culture media were seeded in 96 well plates (coated with poly D-lysine for HEK cells) and incubated at standard conditions overnight. Afterward, cells were incubated with peptides or MTX dissolved in cell culture media, and a medium without peptides was used as a control. After 72 h, cells of the negative control were treated with ethanol for 3 min. Ethanol or media was removed and a 50 µL resazurin-based in vitro toxicology assay kit (Sigma-Aldrich, St. Lous, MO, USA) in cell culture media (1:10) was added to each well. After 1 h incubation time, the conversion of the resazurin was detected by measuring the fluorescence intensity at λem = 590 nm. All experiments were performed in duplicates and each experiment was repeated at least three times. Nonlinear regression was calculated using GraphPad Prism 5, curves were normalized to untreated and ethanol-treated cells.

[2] = Investigation of plasma stability (Tam-labeled peptides, RP-HPLC); type: in vitro ADME; conditions: human blood plasma, 37 °C, up to 24 h
hCMKLR1 = molecular target: T1, hCMKLR1 (Homo sapiens, UniProt Q99788); test: Calcium flux assay in COS-7 cells transfected with hCMKLR1_eYFP_GαΔ6qi4myr; conditions: Ca^2+ flux; for EC50: normalized to chemerin-9 curve
T1 sequence (Q99788 1-373): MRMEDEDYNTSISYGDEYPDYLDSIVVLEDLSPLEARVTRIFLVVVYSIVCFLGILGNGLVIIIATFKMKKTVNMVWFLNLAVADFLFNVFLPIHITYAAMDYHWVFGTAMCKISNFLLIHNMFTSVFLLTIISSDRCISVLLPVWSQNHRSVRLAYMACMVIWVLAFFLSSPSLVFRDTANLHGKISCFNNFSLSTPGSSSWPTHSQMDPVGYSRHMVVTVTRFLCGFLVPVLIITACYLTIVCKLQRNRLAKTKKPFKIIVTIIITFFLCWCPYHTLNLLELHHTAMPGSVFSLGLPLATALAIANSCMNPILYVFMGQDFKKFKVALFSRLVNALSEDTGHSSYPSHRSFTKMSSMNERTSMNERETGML

[3] = system: untransfected HEK293 cells; test: Resazurin-based cell viability assay, untransfected HEK293; conditions: HEK293 cells devoid of CMKLR1, 72 h; read-out: IC50 (toxicity)
Experimental: as §1

Molecule: Tam-YFPGQFAFS
cleaved bond (human blood plasma): A7-F8, first_seen, 30 min; also recorded: Q5-F6, minor, 30 min; also recorded: P3-G4, major, 30 min

Molecule: Mtx-GFLGK(Ac)YFP(xQFAFC) [Compound 15]
IC50 [1]: 61 nM
IC50 (HMEC-1 cells): 2000 nM

Molecule: CN(C)c1ccc2c(c1)Oc1cc(N(C)C)ccc1C21OC(=O)c2ccc(C(=O)NCCCC[C@@H]3NC(=O)[C@H](Cc4ccccc4)NC(=O)[C@H](CCC(N)=O)NC(=O)[C@H](NC(=O)[C@@H]4CCCN4C(=O)[C@H](Cc4ccccc4)NC(=O)[C@@H](N)Cc4ccc(O)cc4)CSSC[C@@H](C(=O)O)NC(=O)[C@H](Cc4ccccc4)NC3=O)cc21 [Compound 7T, YFP(cQFK(Tam)FC)]
stability in blood plasma (in words) [2]: completely degraded within 60 min

pEC50 ± SEM (hCMKLR1): 7.676 ± 0.22
EC50 (hCMKLR1): 21 nM
Molecule: GFLGYFP(xQFAFC) (cyclic; GFLG linker) [Compound 11]

stability in blood plasma (in words) [2]: the same stability for 24 h
Molecule: C[C@@H]1NC(=O)[C@H](Cc2ccccc2)NC(=O)[C@H](CCC(N)=O)NC(=O)[C@H](NC(=O)[C@@H]2CCCN2C(=O)[C@H](Cc2ccccc2)NC(=O)[C@H](Cc2ccc(O)cc2)NC(=O)c2ccc3c(c2)C2(OC3=O)c3ccc(N(C)C)cc3Oc3cc(N(C)C)ccc32)CSCSCC[C@@H](C(=O)O)NC(=O)[C@H](Cc2ccccc2)NC1=O [Compound 6T, Tam-YFP(c(CH2)QFAFX)]

Molecule: Mtx-GFLGK(Ac)YFPGQFAFS [Compound 14]
IC50 (HMEC-1 cells): 13000 nM
IC50 [3]: 345 nM

Molecule: C[C@@H]1NC(=O)[C@H](Cc2ccccc2)NC(=O)[C@H](CCC(N)=O)NC(=O)[C@H](NC(=O)[C@@H]2CCCN2C(=O)[C@H](Cc2ccccc2)NC(=O)[C@H](Cc2ccc(O)cc2)NC(=O)c2ccc3c(c2)C2(OC3=O)c3ccc(N(C)C)cc3Oc3cc(N(C)C)ccc32)CSSC[C@@H](C(=O)O)NC(=O)[C@H](Cc2ccccc2)NC1=O [Compound 4T, Tam-YFP(cQFAFC)]
stability in blood plasma (in words) [2]: remained completely intact for the course of the experiment (24 h)

Molecule: CN(C)c1ccc2c(c1)Oc1cc(N(C)C)ccc1C21OC(=O)c2ccc(C(=O)N[C@@H](Cc3ccc(O)cc3)C(=O)N[C@@H](Cc3ccccc3)C(=O)N3CCC[C@H]3C(=O)N[C@@H]3CSCSC[C@@H](C(=O)N[C@@H](Cc4ccccc4)C(=O)N[C@@H](CO)C(=O)O)NC(=O)[C@H](Cc4ccccc4)NC(=O)[C@H](CCC(N)=O)NC3=O)cc21 [Compound 3T, Tam-YFP(c(CH2)QFCFS)]
stability in blood plasma (in words) [2]: did not improve its resistance to proteolytic degradation

stability in blood plasma (in words) [2]: the same stability for 24 h
Molecule: C[C@@H]1NC(=O)[C@H](Cc2ccccc2)NC(=O)[C@H](CCC(N)=O)NC(=O)[C@H](NC(=O)[C@@H]2CCCN2C(=O)[C@H](Cc2ccccc2)NC(=O)[C@H](Cc2ccc(O)cc2)NC(=O)c2ccc3c(c2)C2(OC3=O)c3ccc(N(C)C)cc3Oc3cc(N(C)C)ccc32)CSCSC[C@@H](C(=O)O)NC(=O)[C@H](Cc2ccccc2)NC1=O [Compound 5T, Tam-YFP(c(CH2)QFAFC)]

pEC50 ± SEM (hCMKLR1): 7.766 ± 0.23
EC50 (hCMKLR1): 17 nM
Molecule: C[C@@H]1NC(=O)[C@H](Cc2ccccc2)NC(=O)[C@H](CCC(N)=O)NC(=O)[C@H](NC(=O)[C@@H]2CCCN2C(=O)[C@H](Cc2ccccc2)NC(=O)[C@H](Cc2ccc(O)cc2)NC(=O)CCOCCOCCOCCOCCN)CCSSC[C@@H](C(=O)O)NC(=O)[C@H](Cc2ccccc2)NC1=O [Compound 12, EG(4)-YFP(xQFAFC)]

stability in blood plasma (in words) [2]: only slightly increased stability
Molecule: CN(C)c1ccc2c(c1)Oc1cc(N(C)C)ccc1C21OC(=O)c2ccc(C(=O)N[C@@H](Cc3ccc(O)cc3)C(=O)N[C@@H](Cc3ccccc3)C(=O)N3CCC[C@H]3C(=O)N[C@@H]3CSSC[C@@H](C(=O)N[C@@H](Cc4ccccc4)C(=O)N[C@@H](CO)C(=O)O)NC(=O)[C@H](Cc4ccccc4)NC(=O)[C@H](CCC(N)=O)NC3=O)cc21 [Compound 2T, Tam-YFP(cQFCFS)]

Molecule: CN(C)c1ccc2c(c1)Oc1cc(N(C)C)ccc1C21OC(=O)c2ccc(C(=O)NCCCC[C@@H]3NC(=O)[C@H](Cc4ccccc4)NC(=O)[C@H](CCC(N)=O)NC(=O)[C@H](NC(=O)[C@@H]4CCCN4C(=O)[C@H](Cc4ccccc4)NC(=O)[C@H](N)Cc4ccc(O)cc4)CSSC[C@@H](C(=O)O)NC(=O)[C@H](Cc4ccccc4)NC3=O)cc21 [Compound 8T, yFP(cQFK(Tam)FC)]
stability in blood plasma (in words) [2]: fully stable in blood plasma for 24 h
